Columns and labels:
[1] = system: Ac-N-Asp-Gly-Asp-Ala-Gly-Tyr-Ala-Gly-Leu-Arg-Gly-Ala-Gly-diamino-ethyl-Bodipy FL
[2] = target: Ac-N-Asp-Gly-Asp-Ala-Gly-Tyr-Ala-Gly-Leu-Arg-Gly-Ala-Gly-diamino-ethyl-Bodipy FL; experiment: cell-based or functional assay

Substance | detection level of the protease by cleavage of the substrate, by inspection of the agarose gel, 1×PBS [1] | detection level of the protease by cleavage of the substrate, by inspection of the agarose gel, human plasma [1] | detection limit of the protease by cleavage of the substrate, quantified gel scan, 1×PBS [1] | detection limit of the protease by cleavage of the substrate, quantified gel scan, human plasma [1] | detection limit of the cleavage products in whole rat blood (reaction in 1×PBS, then mixed with inhibitor-treated blood), agarose gel [2] [nM]
bovine pancreatic α-chymotrypsin | a detection level of about 20 nM for chymotrypsin | a detection level of about 20 nM for chymotrypsin | a detection limit of about 10 nM (0.02 activity units′/ml) for α-chymotrypsin | a detection limit of about 10 nM (0.02 activity units^1/ml) for α-chymotrypsin | 
bovine pancreatic α-chymotrypsin (from UniProt P00766 1-245) (enzyme) |  |  |  |  | 20
